Source: publication PMC8688955 (Frontiers in Pharmacology, 2021)

Protein sequences, listed by entry. Tags and fused reporters are not part of them. Residues count along the entry.
UniProt P19491, 22-883 Q607R: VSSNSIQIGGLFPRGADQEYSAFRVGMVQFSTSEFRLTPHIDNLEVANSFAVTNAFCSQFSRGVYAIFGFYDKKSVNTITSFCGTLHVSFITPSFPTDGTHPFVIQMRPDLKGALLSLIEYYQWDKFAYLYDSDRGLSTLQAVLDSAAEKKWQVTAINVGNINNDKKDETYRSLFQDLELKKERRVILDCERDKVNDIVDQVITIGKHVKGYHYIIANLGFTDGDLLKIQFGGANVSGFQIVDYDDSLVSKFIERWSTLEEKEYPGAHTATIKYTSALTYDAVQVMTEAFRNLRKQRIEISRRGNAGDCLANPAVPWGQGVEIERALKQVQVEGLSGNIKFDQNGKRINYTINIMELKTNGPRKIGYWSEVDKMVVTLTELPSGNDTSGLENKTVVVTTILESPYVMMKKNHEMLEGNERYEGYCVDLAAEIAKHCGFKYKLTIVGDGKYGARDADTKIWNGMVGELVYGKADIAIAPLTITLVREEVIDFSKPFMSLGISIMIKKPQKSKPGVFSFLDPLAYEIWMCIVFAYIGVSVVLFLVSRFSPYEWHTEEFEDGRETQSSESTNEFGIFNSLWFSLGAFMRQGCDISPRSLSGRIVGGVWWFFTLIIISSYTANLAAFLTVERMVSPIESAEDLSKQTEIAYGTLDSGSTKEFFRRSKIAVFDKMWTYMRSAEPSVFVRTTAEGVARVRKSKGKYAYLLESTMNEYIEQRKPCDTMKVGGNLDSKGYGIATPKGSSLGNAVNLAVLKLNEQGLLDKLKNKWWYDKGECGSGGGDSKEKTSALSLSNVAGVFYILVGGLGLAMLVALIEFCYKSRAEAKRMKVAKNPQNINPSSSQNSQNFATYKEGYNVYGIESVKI

Target: T1, CI-AMPARs (Rattus norvegicus, UniProt P19491, Q607R)
T1 construct: activity against native calcium-permeable AMPA receptors (CP-AMPARs) and calcium-impermeable AMPA receptors (CI-AMPARs); endogenous in cells; host or cells: acutely isolated pyramidal neurons from the CA1 area of Wistar rat hippocampal slices
Test: Whole-cell patch-clamp of kainate-induced currents in isolated hippocampal CA1 pyramidal neurons
Type: cell-based, Wistar rat
Details: for % block: DNQX, 200 nM, representative recording, Figure 3D
Experimental: All experimental procedures were approved by the Animal Care and Use Committee of the I.M. Sechenov Institute of Evolutionary Physiology and Biochemistry of the Russian Academy of Sciences. Wistar rats (13–19 days old) were anesthetized with sevoflurane and then decapitated. Maximum effort was made to minimize the number of animals used. Brains were removed quickly and cooled to 2–4°C in an ice bath. […] The antagonism of CI-AMPARs was studied on pyramidal neurons from the CA1 area of the hippocampus.
Series resistance of about 20 MΩ was compensated by 70–80% and monitored during experiments. Currents were recorded using an EPC-8 amplifier (HEKA Electronics, Lambrecht, Germany), filtered at 5 kHz, sampled, and stored on a personal computer. Drugs were applied using the RSC-200 perfusion system (BioLogic Science Instruments, Claix, France) under computer control. The solution exchange time in the whole-cell mode was 50–60 ms. […] The pipette solution contained (in mM) CsF 100, CsCl 40, NaCl 5, CaCl2 0.5, EGTA 5, and HEPES 10 (pH was adjusted to 7.2 with CsOH). Experiments were performed at room temperature (22–24°C). […] Lamotrigine, topiramate, levetiracetam, felbamate, carbamazepine, tiagabin, vigabatrin, zonisamide, and gabapentin were purchased from Tocris Bioscience (Bristol, United Kingdom). Perampanel was from MedChemExpress (Stockholm, Sweden). Kinetics of transient processes of more than 20-ms duration was approximated by exponential functions. Experiments were performed at −80 mV holding voltage. All experimental data are presented as mean ± SD estimated from at least four experiments. Significance of the effects was tested with paired t test. Differences were considered significant at p < 0.05. 3D structures of compounds were calculated by the ZMM software (zmmsoft.ca).

## O=c1[nH]c2cc([N+](=O)[O-])c([N+](=O)[O-])cc2[nH]c1=O [DNQX]
0.2 µM DNQX
  effect on maximal response to kainate: did not change it
10 µM DNQX
  effect on the slow phase of recovery from 50 µM phenytoin: remains unchanged
100 µM cyclothiazide, 50 µM kainate
  Activity drop in the presence of cyclothiazide: less active in the presence of cyclothiazide and Yes
50 vs 500 µM kainate
  Activity drop at high (500 µM) kainate concentration: more active in the case of lower kainate concentration and Yes
  decrease in the % of inhibition with the increase in agonist concentration: 30–40%
Ka 50 μM
  % block: 52%
Ka 500 μM
  % block: 14%
Comparison of CI-AMPARs and CP-AMPARs
  More active against CI-AMPARs: slightly more active against hippocampal CI-AMPARs and Yes
